Data: ChEMBL document CHEMBL3351619 (J Med Chem, 2014)

Tested on: CHO-K1
Assay: Selectivity ratio of Ki for human 5-HT1A expressed in CHO-K1 cells to Ki for human 5-HT7 expressed in HEK-293 cells
Type: cell-based

O=C1Cc2ccccc2N1CC/C=C/CCN1CCc2ccccc2C1
Ratio Ki: > 1430
